Test results: patent publication US20230340060A1, “NOVEL MEANS TO PREDICT AND MANIPULATE NMDA RECEPTOR-MEDIATED TOXICITY” (FundaMental Pharma GmbH, priority 2020, published 2023)

Chains of the proteins cited; added tags and fusions are not shown. Residues count along the entry.
UniProt Q00959, 23-1464: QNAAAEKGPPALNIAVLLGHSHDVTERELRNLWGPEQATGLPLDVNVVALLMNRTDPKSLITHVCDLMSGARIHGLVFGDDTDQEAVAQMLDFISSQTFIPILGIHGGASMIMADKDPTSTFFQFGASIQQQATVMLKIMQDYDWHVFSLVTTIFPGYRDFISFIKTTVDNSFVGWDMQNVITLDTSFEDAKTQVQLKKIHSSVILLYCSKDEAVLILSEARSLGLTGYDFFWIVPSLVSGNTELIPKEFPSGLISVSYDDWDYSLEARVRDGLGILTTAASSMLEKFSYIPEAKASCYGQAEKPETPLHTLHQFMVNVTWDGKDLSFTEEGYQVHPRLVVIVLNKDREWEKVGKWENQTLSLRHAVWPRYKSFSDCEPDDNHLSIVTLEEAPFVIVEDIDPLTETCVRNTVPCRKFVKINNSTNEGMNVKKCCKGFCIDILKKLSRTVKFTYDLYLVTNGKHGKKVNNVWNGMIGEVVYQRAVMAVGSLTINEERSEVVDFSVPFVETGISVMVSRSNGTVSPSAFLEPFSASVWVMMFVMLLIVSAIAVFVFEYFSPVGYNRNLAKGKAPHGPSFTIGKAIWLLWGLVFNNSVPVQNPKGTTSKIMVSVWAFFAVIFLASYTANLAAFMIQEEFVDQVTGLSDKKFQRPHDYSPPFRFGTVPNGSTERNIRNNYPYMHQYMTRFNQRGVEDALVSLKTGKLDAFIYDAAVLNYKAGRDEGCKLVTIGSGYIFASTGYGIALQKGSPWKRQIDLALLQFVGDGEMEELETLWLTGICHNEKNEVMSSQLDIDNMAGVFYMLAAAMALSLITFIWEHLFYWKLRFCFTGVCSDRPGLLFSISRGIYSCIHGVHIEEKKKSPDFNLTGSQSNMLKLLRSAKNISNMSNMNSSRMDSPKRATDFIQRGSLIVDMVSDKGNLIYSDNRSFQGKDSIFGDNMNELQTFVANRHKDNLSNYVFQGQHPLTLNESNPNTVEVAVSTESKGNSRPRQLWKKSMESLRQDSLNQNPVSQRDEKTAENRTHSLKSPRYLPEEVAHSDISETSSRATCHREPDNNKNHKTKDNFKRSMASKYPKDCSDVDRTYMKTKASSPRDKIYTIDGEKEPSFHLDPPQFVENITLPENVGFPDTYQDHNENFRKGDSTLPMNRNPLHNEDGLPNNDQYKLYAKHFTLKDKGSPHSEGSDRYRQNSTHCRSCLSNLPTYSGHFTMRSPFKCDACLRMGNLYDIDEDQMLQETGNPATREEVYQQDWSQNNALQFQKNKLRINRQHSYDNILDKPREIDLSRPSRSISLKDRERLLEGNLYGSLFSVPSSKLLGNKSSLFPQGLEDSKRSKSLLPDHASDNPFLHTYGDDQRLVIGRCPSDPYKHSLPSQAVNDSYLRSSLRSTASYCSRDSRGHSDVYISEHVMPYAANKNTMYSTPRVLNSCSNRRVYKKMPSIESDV
UniProt Q00960, 27-1482: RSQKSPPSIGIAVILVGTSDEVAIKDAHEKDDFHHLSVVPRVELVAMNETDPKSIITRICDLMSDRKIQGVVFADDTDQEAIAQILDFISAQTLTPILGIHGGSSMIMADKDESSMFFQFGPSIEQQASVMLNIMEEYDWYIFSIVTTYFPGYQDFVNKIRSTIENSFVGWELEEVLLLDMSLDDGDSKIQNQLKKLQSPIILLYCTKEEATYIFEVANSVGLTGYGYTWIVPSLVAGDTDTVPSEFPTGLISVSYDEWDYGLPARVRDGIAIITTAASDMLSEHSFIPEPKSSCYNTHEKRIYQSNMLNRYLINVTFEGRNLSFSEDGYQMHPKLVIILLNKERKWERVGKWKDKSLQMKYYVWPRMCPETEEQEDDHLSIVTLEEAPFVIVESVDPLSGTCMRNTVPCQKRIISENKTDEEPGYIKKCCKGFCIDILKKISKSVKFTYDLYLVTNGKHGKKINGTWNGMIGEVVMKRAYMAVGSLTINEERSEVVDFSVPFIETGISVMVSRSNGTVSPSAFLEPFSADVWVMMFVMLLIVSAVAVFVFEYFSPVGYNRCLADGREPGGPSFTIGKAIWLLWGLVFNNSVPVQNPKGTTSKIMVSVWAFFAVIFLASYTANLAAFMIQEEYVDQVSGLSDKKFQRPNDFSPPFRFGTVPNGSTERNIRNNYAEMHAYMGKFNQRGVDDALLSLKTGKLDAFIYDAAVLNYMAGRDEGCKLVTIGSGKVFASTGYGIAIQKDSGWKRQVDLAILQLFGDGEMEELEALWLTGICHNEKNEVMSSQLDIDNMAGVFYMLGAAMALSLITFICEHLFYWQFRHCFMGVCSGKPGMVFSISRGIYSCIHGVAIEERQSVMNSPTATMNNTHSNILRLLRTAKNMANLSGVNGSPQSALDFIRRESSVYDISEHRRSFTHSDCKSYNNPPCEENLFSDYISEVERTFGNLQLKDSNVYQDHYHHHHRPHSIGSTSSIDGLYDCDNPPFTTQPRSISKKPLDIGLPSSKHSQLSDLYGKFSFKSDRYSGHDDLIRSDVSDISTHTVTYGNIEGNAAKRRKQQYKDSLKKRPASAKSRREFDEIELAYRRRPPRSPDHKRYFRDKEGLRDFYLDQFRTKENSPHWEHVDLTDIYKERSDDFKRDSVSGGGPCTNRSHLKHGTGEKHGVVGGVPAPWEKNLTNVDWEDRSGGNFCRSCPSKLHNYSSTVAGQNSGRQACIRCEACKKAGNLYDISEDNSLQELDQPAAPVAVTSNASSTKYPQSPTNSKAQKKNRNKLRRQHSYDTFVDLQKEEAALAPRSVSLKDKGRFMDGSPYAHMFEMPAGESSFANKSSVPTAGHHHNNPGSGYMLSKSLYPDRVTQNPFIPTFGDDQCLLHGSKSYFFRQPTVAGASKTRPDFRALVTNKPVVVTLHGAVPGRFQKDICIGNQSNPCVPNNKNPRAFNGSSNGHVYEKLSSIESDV

How the values were obtained:
[1] = molecular target: T1, GluN1+GluN2A (wildtype receptor complex) (Rattus norvegicus, UniProt P35439+Q00959); test: Luminescent Cytotoxicity Assay, GluN1+GluN2A expressing HEK293 cells in presence of MK-801; assay type: cell-based; conditions: combined expression of GluN1 and rat GluN2A in presence of MK-801, 48 h after transfection
T1 construct: the results obtained with full length GluN2A and GluN2B receptors can be reproduced; host or cells: HEK293

[2] = molecular target: T2, GluN1+GluN2B (wildtype receptor complex) (Rattus norvegicus, UniProt P35439+Q00960); test: Luminescent Cytotoxicity Assay, GluN1+GluN2B expressing HEK293 cells in presence of MK-801; assay type: cell-based; conditions: combined expression of GluN1 and GluN2B in presence of MK-801, 48 h after transfection
T2 construct: the results obtained with full length GluN2A and GluN2B receptors can be reproduced; host or cells: HEK293

MK-801 maleate
cell death [1]: did not induce cell death | cell death [2]: did also not induce cell death
